This note sets out measurements from ChEMBL document CHEMBL1671826, “Effect of Inhibiting Histone Deacetylase with Short-Chain Carboxylic Acids and Their Hydroxamic Acid Analogs on Vertebrate Development and Neuronal Chromatin” (ACS Med Chem Lett, 2011).

Protein sequences, listed by entry. Tags and fused reporters are not part of them. Lines headed by an entry give the natural chain unless they say otherwise; changes in a name come on top.
UniProt O15379: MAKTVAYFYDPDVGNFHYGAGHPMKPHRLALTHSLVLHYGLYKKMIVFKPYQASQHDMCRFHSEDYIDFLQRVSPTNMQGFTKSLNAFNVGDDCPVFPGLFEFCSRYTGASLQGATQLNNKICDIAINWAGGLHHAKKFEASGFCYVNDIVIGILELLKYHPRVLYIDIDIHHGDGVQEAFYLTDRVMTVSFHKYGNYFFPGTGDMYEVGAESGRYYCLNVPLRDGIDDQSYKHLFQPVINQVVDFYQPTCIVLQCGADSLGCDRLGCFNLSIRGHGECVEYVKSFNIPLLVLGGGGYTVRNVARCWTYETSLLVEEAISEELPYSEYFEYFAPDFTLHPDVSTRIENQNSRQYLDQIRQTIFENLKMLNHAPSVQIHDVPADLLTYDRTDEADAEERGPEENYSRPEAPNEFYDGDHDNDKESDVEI

What is called IC50 is the concentration needed to halve the response being measured.

This experiment deals with Histone deacetylase 3 (Homo sapiens, UniProt O15379). The experiment can be described thus: Inhibition of human recombinant HDAC3. The method in brief: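 Recombinant HDAC isoforms incubated with acetyl-lysine tripeptide–AMC substrate (mimics histone H4 K12), or trifluoroacetyl-lysine-AMC for class IIa enzymes, each substrate at its Km; trypsin cleavage of deacetylated product releases fluorescent AMC. IC50 from two experiments in duplicate, mean ± SD.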

For the compound `CCCC(CCC)C(=O)O` [VALPROIC ACID], the IC50 was determined as 161 µM.
